Measured values taken from patent publication US20170095417A1, “Percutaneous Implement and Method for Manufacturing” (priority 2015, published 2017).

Columns and labels:
[1] = 100 micro implements (10 x 10) in a medication; 0.01 mg Insulin per implement; 50% Insulin in Maltose
rat = assay: Micro payload injected in rat, hypotension and dye distribution (Example 5); conditions: half-shell Maltose cone mixed Rhodamine 6B
Method: A sample of micro payload integrated a 1 mm length conic micro-head with drug and 2 mm length micro-stem without drug was injected in rat.

Row | Substance | Insulin transferred into body [1] | distribution of color in body (rat)
1 | Insulin | 1 mg | –
2 | Rhodamine 6B | – | recognized in rat whole body
